Antibody variant affinities, Ab-95 light chain, assay 2

Binding partner: SARS-CoV-2 spike HR2 peptide, sequence PDVDLGDISGINAS.

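The starting antibody came from a phage panning campaign against this peptide. Variants in AAYL52 differ from the parent at up to three CDR positions; double and triple changes were sampled at random. Affinity was read by AlphaSeq, a pooled yeast mating assay with surface-displayed partners. The frequency of each diploid, read from paired DNA barcodes, reflects how well the two displayed proteins bind. Each replicate has its own calibration line, from reference interactions of the BCL2 family. The assay was run in three technical replicates.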

The variants keep the heavy chain, the linker and the frameworks of Ab-95 (scFv order VH, the linker GGGGSGGGGSGGGGS, VL).
VH: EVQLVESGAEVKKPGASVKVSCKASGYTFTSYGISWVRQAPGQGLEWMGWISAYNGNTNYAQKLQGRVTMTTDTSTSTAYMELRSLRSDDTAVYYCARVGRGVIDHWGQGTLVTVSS
VL: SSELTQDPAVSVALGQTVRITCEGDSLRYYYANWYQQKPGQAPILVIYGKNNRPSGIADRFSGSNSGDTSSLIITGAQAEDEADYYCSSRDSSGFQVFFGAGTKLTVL

Changes read parent residue, position, new residue, counted from the first residue of the VL shown. All variants listed here change R90 of the VL, counted from its first residue. Values are apparent Kd, the geometric mean of the replicates that gave a signal; lower means stronger binding. A pair that was not seen in any replicate is written "no signal"; this usually means weak binding, but a binder can also be missed. Parent in this assay: reference entry 200 nM, copy in this library 180 nM. Empty control strains, which show no peptide, gave a signal in 28% of pairings with library AAYL52; the median was 8.2 µM and 95% of these signals were weaker than 800 nM. No background was subtracted.

A32Y+K50C+R90W: no signal (0 of 3 replicates).
G49V+K50T+R90L: 5.8 µM (1 of 3 replicates).
R53L+R90S+Q96V: 1.6 µM (3 of 3 replicates).
N52W+P54V+R90F: 8.1 µM (1 of 3 replicates).
E23C+Y30H+R90S: 57 nM (3 of 3 replicates).
N51D+R90D+G94E: 13 µM (2 of 3 replicates).
R90C+D91H+Q96H: 2.3 µM (1 of 3 replicates).
G24A+R90T+F95R: no signal (0 of 3 replicates).
Y31C+R90H+D91V: 39 nM (3 of 3 replicates).
R90K: 300 nM (3 of 3 replicates).
D25A+N52S+R90C: 1.0 µM (3 of 3 replicates).
Y30G+R90Y: 5.1 nM (3 of 3 replicates).
S26T+R90A+D91V: 3.3 µM (3 of 3 replicates).
S88Y+R90P: 120 nM (3 of 3 replicates).
R90M+V97C: 230 nM (3 of 3 replicates).
S89P+R90H+D91C: 2.6 µM (1 of 3 replicates).
Y30G+R90C+S93C: 6.4 nM (3 of 3 replicates).
R53V+R90A: no signal (0 of 3 replicates).
R90T+F98A: 18 µM (1 of 3 replicates).
N52V+R90T+G94D: 1.9 µM (3 of 3 replicates).
A32K+R90L+V97P: 3.4 µM (2 of 3 replicates).
L27K+N51Q+R90K: 4.4 µM (1 of 3 replicates).
S88H+R90M+G94W: 79 nM (3 of 3 replicates).
R53T+R90N: 1.1 µM (3 of 3 replicates).
Y29F+R90D: 2.1 µM (1 of 3 replicates).
G49K+P54S+R90H: 40 µM (1 of 3 replicates).
S26H+R90V+F95E: 1.6 µM (2 of 3 replicates).
K50E+R90A+S92I: no signal (0 of 3 replicates).
A32V+R90W+G94L: 1.7 µM (1 of 3 replicates).
N33I+N51L+R90Q: 6.9 µM (2 of 3 replicates).
G49K+R53C+R90M: 6.1 µM (2 of 3 replicates).
G24D+S88M+R90Q: 94 nM (3 of 3 replicates).
E23V+N33V+R90V: 7.3 µM (1 of 3 replicates).
D25H+S55I+R90K: 13 µM (2 of 3 replicates).
Y29Q+S89T+R90Q: 1.0 µM (3 of 3 replicates).
R90A+F98Q: 4.7 µM (3 of 3 replicates).
N33Y+N52C+R90E: no signal (0 of 3 replicates).
Y30T+S55N+R90A: 190 nM (1 of 3 replicates).
R90A+S92P: no signal (0 of 3 replicates).
G24T+R90Q+S92R: no signal (0 of 3 replicates).

The closing 7 entries, repeated:

With D25H+S55I+R90K the result was 13 µM (2 of 3 replicates).
With Y29Q+S89T+R90Q the result was 1.0 µM (3 of 3 replicates).
With R90A+F98Q the result was 4.7 µM (3 of 3 replicates).
With N33Y+N52C+R90E the result was no signal (0 of 3 replicates).
With Y30T+S55N+R90A the result was 190 nM (1 of 3 replicates).
With R90A+S92P the result was no signal (0 of 3 replicates).
With G24T+R90Q+S92R the result was no signal (0 of 3 replicates).

From the AlphaSeq antibody data of Engelhart et al. 2022 (doi:10.1038/s41597-022-01779-4), copy in the FLAb collection.